Screening data from PubChem BioAssay.
ALDH1A1 inh: ALDH1A1 (human) enzyme inhibition | P00352 | Purified ALDH1A1, NADH fluorescence, propionaldehyde substrate | Potency, µM (top dose mostly 75.3 µM), inactives show at the highest dose activity, negative = inhibition, actives largely listed as inhibitors | 7.3% of 220,000 active; active = well fitted inhibition curve with a large enough effect, not every such curve was filed as active; inconclusive = small, poorly fitted or top-dose-only effect, or another doubt; inactive = no such curve, though single readings can be large or run the other way;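 also: potency is read from the fitted curve at half-maximal effect; plate controls were no enzyme wells and a reference inhibitor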
Sfp inh: inhibitors of Bacillus subtilis Sfp phosphopantetheinyl transferase | Q9F4F7 | Biochemical Sfp PPTase activity, qHTS | Potency, µM, inactives show max response, negative = inhibition, most hits filed as inhibitors | 310,000 tested, 3.5% active | AID 1490; active = well fitted inhibition curve with a large enough effect; inconclusive = small, poorly fitted or top-dose-only effect, or another doubt; inactive = no such curve, though single readings can be large or run the other way;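 note: the enzyme is Sfp with the accession as filed and its product quenches rhodamine fluorescence; potency is the fitted concentration of half-maximal effect; 0% = enzyme reaction without inhibitor and -100% = no enzyme wells; top concentration of the series not given in the record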
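Sfp 15 nM + cpd, 15 min RT; start w/ rhodamine-CoA 5 uM, BHQ-2-YbbR 12.5 uM (final); 50 mM Hepes pH 7.6, 10 mM MgCl2, 0.01% NP-40, 0.01% BSA; read 525/598 nm at 0 and 30 min.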
G9a block: inhibitors of human histone lysine methyltransferase G9a. G9a H3K9 monomethylation, AlphaScreen, 2 h. Potency, µM (top dose mostly 102 µM), for the others: top-dose activity, negative = inhibition, usual class: inhibitors. 8.8% of 350,000 active. Q96KQ7; also: potency is read from the fitted curve at half-maximal effect; % is scaled to controls: 0 for no effect and ±100 for the full control effect; nearly all actives have a fitted effect of over 75% in size
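Compounds were preincubated with 20 nM G9a for 15 min, after which biotinylated H3K9 peptide (500 nM) and SAM (20 uM) started a 2 h room-temperature reaction. Monomethylated product was quantified by antibody-based AlphaScreen chemiluminescence.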
miR-21 reporter: miR-21 reporter, rising signal | HeLa miR-21 FLuc reporter, luciferase, 48 h | Potency, µM (top dose mostly 38.3 µM), inactives show at the top dose reporter change, positive = more light | 340,000 tested, under 10 active | AID 2288; active = well fitted rising curve with a large enough effect; inconclusive = small, poorly fitted or top-dose-only effect; inactive = no such curve, though single readings can be large or run the other way;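 further: % of control where 0% means no effect; miR-21 action dims this reporter so a rising signal means less miR-21 action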
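HeLa cells stably expressing CMV-driven firefly luciferase with a downstream miR-21 binding sequence, endogenously expressing miR-21, were treated with titrations (up to about 40uM final) for 48 hours at 37 degree Celsius. Luciferase luminescence was read after lysis.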
JMJD2E inh: JMJD2E (human) inhibition | B2RXH2 | JMJD2E catalytic domain, FDH-coupled NADH fluorescence (FDH is formaldehyde dehydrogenase) | Potency, µM (doses to about 57.1 µM), without a hit: at the top dose activity change, negative = inhibition, hits mostly inhibitors | 1.6% of 230,000 active | AID 2147; active = well fitted inhibition curve with a large enough effect, not every such curve was filed as active; inconclusive = small, poorly fitted or top-dose-only effect, or another doubt; inactive = no such curve, though single readings can be large or run the other way;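 also: potency is read from the fitted curve at half-maximal effect; 0% = wells with enzyme and -100% = buffer wells without enzyme; nearly all actives have a fitted effect of over 50% in size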
LMNA splice mod: LMNA splicing modulation; HeLa LMNA splicing GFP/RFP minigene ratio, 48 h; Potency, µM (top dose mostly 46.1 µM), inactives show top-dose ratio change, negative = inhibition, hits mostly inhibitors; 0.01% of 200,000 active; AID 1487; active = well fitted inhibition curve with a large enough effect in the signal ratio, with a control signal flat, not every such curve was filed as active; inconclusive = small, poorly fitted or top-dose-only effect, or effect the other way, or a change in a side signal; the % refers to the signal ratio; also: potency is read from the fitted curve at half-maximal effect; % is scaled to controls: 0 for no effect and ±100 for the full control effect
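Read-out is the ratio of GFP to DsRed2 object intensity, acquired by 488 nm laser-scanning cytometry on HeLa lamin A-EGFP minigene reporter cells. Compound incubation 48 hrs at 37 °C in Opti-MEM with 2% FBS; DMSO 0.5% final.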
The depositor's hits bear a star; ? = inconclusive; . = no result given; [ ] = another dose, or the depositor's remark. Rows were chosen to be rich in hits. Some 13% of all compounds tested hit in one or more screens of this group. Unless noted, calls follow the shape of the dose curve; as a rule, active = well fitted curve in the direction sought with a large enough effect; inconclusive = small, poorly fitted or top-dose-only effect, or another doubt; inactive = no such curve, though single readings can be large; an effect the other way counts as inactive or inconclusive.

ALDH1A1 inh | Sfp inh | G9a block | miR-21 reporter | JMJD2E inh | LMNA splice mod | molecule
. | 7.9% | . | . | . | . | CSCC[C@H](NC(=O)[C@H](CC(C)C)NC(=O)[C@H](Cc1c[nH]c2ccccc12)NC(=O)[C@H](CCC(N)=O)NC(=O)[C@@H](NC(=O)[C@H](Cc1ccccc1)NC(=O)[C@H](CC(=O)O)NC(=O)[C@H](CCC(N)=O)NC(=O)[C@H](C)NC(=O)[C@H](CCCNC(=N)N)NC(=O)[C@H](CCCNC(=N)N)NC(=O)[C@H](CO)NC(=O)[C@H](CC(=O)O)NC(=O)[C@H](CC(C)C)NC(=O)[C@H](Cc1ccc(O)cc1)NC(=O)[C@H](CCCCN)NC(=O)[C@H](CO)NC(=O)[C@H](Cc1ccc(O)cc1)NC(=O)[C@H](CC(=O)O)NC(=O)[C@H](CO)NC(=O)[C@@H](NC(=O)[C@H](Cc1ccccc1)NC(=O)[C@@H](NC(=O)CNC(=O)[C@H](CCC(N)=O)NC(=O)[C@H](CO)NC(=O)[C@@H](N)Cc1cnc[nH]1)[C@@H](C)O)[C@@H](C)O)C(C)C)C(=O)N[C@@H](CC(N)=O)C(=O)N[C@H](C(=O)O)[C@@H](C)O
25.1µM* | 17.4% | 7.9%[59 µM] | -18.8% | 8.4% | . | Cc1cccc(NC(=O)C(c2ccccc2Cl)N2CCOCC2)c1 (stereo not given)
-11.9% | -10.9% | 15.4%[12.7 µM] | . | . | . | COc1cccc(Nc2ncc3nc(-c4ccc(F)cc4)c(=O)n(C[C@H]4CCCO4)c3n2)c1
11.2µM* | 56.2µM* | 2.82µM* | -14.3% | ? | 0.4% | CCc1ccc(C(=O)CSc2n[nH]c(C)n2)cc1
-7.2% | 1.1% | 28.2µM* | -16.9% | 2.4% | ? | CCCCOc1ccc(CSc2n[nH]c(C)n2)cc1
. | 4.4% | -2.3% | -6.3% | . | . | CCc1ccc(C(=O)CSc2nc(N)cc(=O)[nH]2)cc1
1.7% | 7.0% | 4.3% | -0.5% | -7.0% | -12.9%[46 µM] | Cc1nc(SCC(=O)O)n[nH]1
? | 89.1µM* | 10µM* | -23.2% | ? | 6.0% | Cc1ccc(C(=O)CSc2n[nH]c(C)n2)cc1
-2.7% | 19.5% | -5.6% | -4.1% | 3.5% | 1.5% | O=C(CSc1nn(-c2ccc(F)cc2)c(=S)s1)N1CCN(C(=O)c2ccco2)CC1
. | 0.6% | 59.7% | 0.3% | . | . | CC(=O)N1CCN(C(=O)c2ccco2)CC1

Part of the list above in another layout:
Below each compound: ALDH1A1 inh | Sfp inh | G9a block | miR-21 reporter | JMJD2E inh | LMNA splice mod
CCCCOc1ccc(CSc2n[nH]c(C)n2)cc1
 : -7.2% | 1.1% | 28.2µM* | -16.9% | 2.4% | ?
CCc1ccc(C(=O)CSc2nc(N)cc(=O)[nH]2)cc1
 : . | 4.4% | -2.3% | -6.3% | . | .
Cc1nc(SCC(=O)O)n[nH]1
 : 1.7% | 7.0% | 4.3% | -0.5% | -7.0% | -12.9%[46 µM]
Cc1ccc(C(=O)CSc2n[nH]c(C)n2)cc1
 : ? | 89.1µM* | 10µM* | -23.2% | ? | 6.0%

(next part)
ALDH1A1 inh | Sfp inh | G9a block | miR-21 reporter | JMJD2E inh | LMNA splice mod | molecule
25.1µM* | 6.2% | -11.1%[12.7 µM] | -1.9% | 0.3% | 7.6% | O=C(c1ccco1)N1CCC(n2nnc3ccccc32)CC1
8.91µM* | -1.9% | 8.6% | -4.7% | 1.3% | -10.4% | CCN1C(=O)c2ccccc2S(=O)c2ccc(C(=O)N3CCN(C(=O)c4ccco4)CC3)cc21 (stereo not given)
? | -9.9% | 79.4µM* | 5.9% | -12.0% | 0.6% | O=C(CSc1nn(-c2ccc(Cl)cc2)c(=S)s1)N1CCN(C(=O)c2ccco2)CC1
20µM* | -0.5% | 1.9%[12.7 µM] | 6.3% | -7.4% | 0.1% | NC(=O)N1CCN(C(=O)c2ccco2)CC1
. | . | -24.8%[59 µM] | 12.9% | . | ? | COC(=O)c1ccc(NC(=O)N2CCC(CN3CCc4ccccc4C3)CC2)cc1
. | 12.4% | 86.3% | -2.4% | . | . | CCc1cc(C(=O)N2CCCC(Nc3ccc(F)c(F)c3)C2)n(C)n1 (stereo not given)
25.1µM* | 1.6% | . | 1.2% | 1.1% | -3.9% | O=C(c1ccc(Cl)cc1)N1CCN(C(=O)c2ccco2)CC1
3.6% | 12.6% | 10.2%[59 µM] | -44.8% | 9.0% | 5.0%[46 µM] | O=C(c1ccco1)N1CCN(c2ccc(F)cc2)CC1
10µM* | -23.2% | 44.7µM* | -11.4% | -5.9% | 5.3% | O=C(c1ccco1)N1CCN(C(=O)c2cccc3c2C(=O)N(C2CCCCC2)C3)CC1
-3.4% | -0.5% | -27.6%[12.7 µM] | 0.2% | 3.7% | 0.5% | O=C(c1ccncc1)N1CCN(C(=O)c2ccco2)CC1
? | -19.3% | 20µM* | -12.3% | -20.0% | ? | Nc1ccc(N2CCN(C(=O)c3ccco3)CC2)cc1
0.178µM* | 4.3% | -0.5%[59 µM] | -3.1% | -4.5% | -8.4% | CC(C)(C)NS(=O)(=O)c1ccc(CCC(=O)Nc2ccc3c(c2)OCO3)cc1
